ERp5 inh: inhibitors of human ERp5; inhibition, % at 9.99 µM; ERp5 insulin aggregation, absorbance 650 nm, 90 min; hit rate 0.05% among 350,000; Q15084;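 active means mean replicate inhibition above about 25%, with every replicate also reaching it, limit read from the data, passing the limit was not always enough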
PDI inh: blocks human protein disulfide isomerase activity. hit rate 0.052% among 350,000. PDI insulin aggregation turbidity, A650, 90 min. inhibition, % at 10 µM;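 active means mean inhibition across replicates of 30% or more, whatever share of single replicates reach that level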
Yeast UUG start-1: modulators of yeast start codon fidelity, primary screen, whole organism, S. cerevisiae, single point, plate reader; S. cerevisiae UUG-firefly luciferase reporter, luminescence/redox ratio; activity score, % at 18.7 µM; actives 0.13% (n = 350,000);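 active means replicate mean at a twofold rise or more, about +100% in these data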;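 further: firefly luciferase made from a UUG start codon reports start codon fidelity; reporter light over untreated wells divided by growth signal over untreated wells; some hits fall short of that in this replicate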
Cneo AK release: Cryptococcus neoformans lysis via adenylate kinase release; lysis activity, % at 15 µM; hit rate 0.2% among 360,000; AID 651654; C. neoformans lysis, adenylate kinase release luminescence, 4 h; normalised: neutral wells 0, clomiphene wells 100;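 active means mean lysis activity across replicates of at least 80%, whatever share of replicates individually reach that level; inactive means mean lysis activity below 80%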
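Test system: log-phase Cryptococcus neoformans yeast cells. Input: 5 × 10^6 yeast cells/mL. Medium: fresh YPD growth medium. Doses: single dose. Incubation: static 4 h at 37 °C with compound, 1 h detection. Measured by: luminescent adenylate kinase detection reagent. Read-out: signal increase indicating cell lysis. Benchmarks: Clomiphene.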
Yeast UUG start-2: yeast start codon fidelity modulation | shares compounds with Yeast UUG start-1 | S. cerevisiae UUG-start firefly luciferase, luminescence, 4 h; 100% means double the DMSO signal | activation, % at 38 µM | 540 tested, under 10 active | AID 652061;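 active means signal increase whose fitted curve reaches an absolute level of 40 at a concentration under 10 µM; inactive means activity opposite to the expected increase, or the rest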
Each line names hits and unclear results; the compound was inactive in the other large screens (follow-up assays come after a bar, where they were run); ! = repeats disagree. Sampled rows, rich in hits. Any-hit rate of the full collection: about 0.34%.

CC(Cc1ccccc1Sc1ccccc1O)N(C)C (configuration not stated)	PDI inh 38 (no result: ERp5 inh)
CCCC#Cc1ccc([C@H]2[C@H]3CN(C(=O)Cc4ccccn4)CCCCN3[C@H]2CO)cc1	none (no result: PDI inh)
C[C@H](CO)N1C[C@H](C)[C@@H](CN(C)C(=O)Oc2ccc3ccccc3c2)OCc2cn(nn2)CCCC1=O	ERp5 inh 54!
CC1=C(O)C(=O)C=C2C1=CC=C1C2(C)CCC2(C)C3CC(C)(C(=O)O)CCC3(C)CCC12C (configuration not stated)	PDI inh 63 (no result: Yeast UUG start-1, Cneo AK release)
Cc1cc(OCC(=O)NCc2ccncc2)c2c3c(c(=O)oc2c1)CCC3	none
Cc1cc(OCC(=O)NCc2ccc(S(N)(=O)=O)cc2)c2c3c(c(=O)oc2c1)CCC3	ERp5 inh 28
O=C(NC[C@H]1CC[C@@H]2NC[C@@H]2O1)C1CCCC1	none (no result: PDI inh, Yeast UUG start-1, Cneo AK release)
O=C(C1CC1)N1C[C@@H]2N[C@H](C1)[C@@H]2c1ccc(-c2ccncc2)cc1	none (no result: PDI inh, Yeast UUG start-1, Cneo AK release)
O=c1[nH]c(CN2CC=C(c3ccccc3)CC2)nc2cc(C(F)(F)F)ccc12	Cneo AK release 88 (no result: ERp5 inh)
Cn1ncnc2c(=O)n(C)c(=O)nc1-2	PDI inh 175 (no result: ERp5 inh)
C[C@@H]1CN([C@@H](C)CO)C(=O)c2c(c3ccccc3n2C)-c2ccccc2CO[C@@H]1CN(C)C(=O)Oc1ccccc1	none (no result: PDI inh, Yeast UUG start-1, Cneo AK release)
COCC#Cc1ccc([C@H]2[C@H](CO)N3CCCCN(C(=O)Cc4ccccn4)C[C@@H]23)cc1	none (no result: PDI inh)
O=C(Nc1ccccc1Cl)OC1CN2CCC1CC2 (configuration not stated)	none (no result: Yeast UUG start-1, Cneo AK release)
O=C(Nc1ccccc1F)OC1CN2CCC1CC2 (configuration not stated)	Yeast UUG start-1 165 | Yeast UUG start-2 inactive
O=C(O)[C@@H]1[C@@H](CO)[C@@H]2Cn3c(ccc(-c4cccnc4)c3=O)[C@H]1N2C(=O)Nc1cc(F)ccc1F	none (no result: PDI inh, Yeast UUG start-1)
CCCCOC(=O)C1=C(N)OC2=C(C(=O)CCC2)[C@]12C(=O)Nc1ccccc12	Yeast UUG start-1 125 (no result: ERp5 inh) | Yeast UUG start-2 inactive
